Chains of the proteins cited; added tags and fusions are not shown.
UniProt O48604, whole entry R146V/R147D/R148G/A164G/L320H: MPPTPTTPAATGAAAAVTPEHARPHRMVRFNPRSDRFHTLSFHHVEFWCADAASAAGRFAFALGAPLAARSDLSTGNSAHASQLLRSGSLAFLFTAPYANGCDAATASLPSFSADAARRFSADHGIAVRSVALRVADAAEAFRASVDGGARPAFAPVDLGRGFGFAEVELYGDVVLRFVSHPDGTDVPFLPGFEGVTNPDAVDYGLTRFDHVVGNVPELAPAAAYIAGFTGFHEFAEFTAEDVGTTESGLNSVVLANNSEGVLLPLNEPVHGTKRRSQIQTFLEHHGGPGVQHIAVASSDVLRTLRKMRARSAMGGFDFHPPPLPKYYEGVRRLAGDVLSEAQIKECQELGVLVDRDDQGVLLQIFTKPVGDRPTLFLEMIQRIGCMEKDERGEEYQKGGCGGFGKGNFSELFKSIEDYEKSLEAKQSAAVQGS
UniProt O48604, whole entry R146V/R147D/R148G/A164G/S252T: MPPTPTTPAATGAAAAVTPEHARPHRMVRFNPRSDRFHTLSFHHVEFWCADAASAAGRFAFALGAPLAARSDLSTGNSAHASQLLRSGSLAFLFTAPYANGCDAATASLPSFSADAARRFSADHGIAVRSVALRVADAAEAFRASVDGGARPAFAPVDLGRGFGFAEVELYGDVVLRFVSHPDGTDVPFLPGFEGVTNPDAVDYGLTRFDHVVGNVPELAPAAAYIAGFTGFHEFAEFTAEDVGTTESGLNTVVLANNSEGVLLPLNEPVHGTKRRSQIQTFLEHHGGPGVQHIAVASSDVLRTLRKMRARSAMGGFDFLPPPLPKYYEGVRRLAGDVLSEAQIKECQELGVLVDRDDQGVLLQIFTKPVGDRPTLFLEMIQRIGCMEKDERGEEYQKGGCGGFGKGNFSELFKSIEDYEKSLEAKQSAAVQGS
UniProt O48604, whole entry R146V/R147D/R148G/A164G/R309K: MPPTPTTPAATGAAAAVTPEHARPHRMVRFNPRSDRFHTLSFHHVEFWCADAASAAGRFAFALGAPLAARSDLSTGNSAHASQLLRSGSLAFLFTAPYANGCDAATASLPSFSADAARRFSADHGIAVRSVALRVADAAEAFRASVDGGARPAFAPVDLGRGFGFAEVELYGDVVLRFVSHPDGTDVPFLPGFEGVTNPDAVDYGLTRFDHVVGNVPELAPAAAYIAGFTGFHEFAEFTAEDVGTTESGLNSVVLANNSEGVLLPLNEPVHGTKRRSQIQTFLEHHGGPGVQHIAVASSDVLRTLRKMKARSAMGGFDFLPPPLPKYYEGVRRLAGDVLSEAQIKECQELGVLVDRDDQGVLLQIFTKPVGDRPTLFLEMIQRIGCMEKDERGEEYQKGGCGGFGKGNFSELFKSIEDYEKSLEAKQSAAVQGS
UniProt O48604, whole entry R146V/R147D/R148G/A164G/L320N/P321R/L353M: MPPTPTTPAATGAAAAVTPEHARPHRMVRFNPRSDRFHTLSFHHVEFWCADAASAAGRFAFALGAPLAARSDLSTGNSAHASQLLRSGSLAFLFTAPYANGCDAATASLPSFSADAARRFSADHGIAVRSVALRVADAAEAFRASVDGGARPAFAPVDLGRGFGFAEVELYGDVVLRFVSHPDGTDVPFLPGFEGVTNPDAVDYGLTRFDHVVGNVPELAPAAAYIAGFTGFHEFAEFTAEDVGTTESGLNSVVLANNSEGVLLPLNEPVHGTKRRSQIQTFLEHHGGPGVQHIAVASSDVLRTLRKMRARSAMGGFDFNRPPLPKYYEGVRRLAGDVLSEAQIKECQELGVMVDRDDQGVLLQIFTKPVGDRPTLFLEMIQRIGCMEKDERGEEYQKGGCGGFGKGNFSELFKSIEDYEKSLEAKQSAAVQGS
UniProt O48604, whole entry R146V/R147D/R148G/A164G/L320N: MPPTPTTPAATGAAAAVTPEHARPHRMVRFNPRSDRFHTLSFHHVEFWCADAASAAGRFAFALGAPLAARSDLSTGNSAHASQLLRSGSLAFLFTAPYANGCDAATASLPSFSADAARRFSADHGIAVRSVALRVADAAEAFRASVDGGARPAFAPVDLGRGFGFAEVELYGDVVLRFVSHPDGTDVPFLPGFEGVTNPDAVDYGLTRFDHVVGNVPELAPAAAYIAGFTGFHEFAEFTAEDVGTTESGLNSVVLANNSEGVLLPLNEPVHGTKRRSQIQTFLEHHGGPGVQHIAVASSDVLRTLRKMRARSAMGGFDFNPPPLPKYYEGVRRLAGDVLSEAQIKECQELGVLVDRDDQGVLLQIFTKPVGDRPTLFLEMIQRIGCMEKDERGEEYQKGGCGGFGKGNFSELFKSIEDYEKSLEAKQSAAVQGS
UniProt O48604, whole entry R146V/R147D/R148G/A164G/L320H/P321A: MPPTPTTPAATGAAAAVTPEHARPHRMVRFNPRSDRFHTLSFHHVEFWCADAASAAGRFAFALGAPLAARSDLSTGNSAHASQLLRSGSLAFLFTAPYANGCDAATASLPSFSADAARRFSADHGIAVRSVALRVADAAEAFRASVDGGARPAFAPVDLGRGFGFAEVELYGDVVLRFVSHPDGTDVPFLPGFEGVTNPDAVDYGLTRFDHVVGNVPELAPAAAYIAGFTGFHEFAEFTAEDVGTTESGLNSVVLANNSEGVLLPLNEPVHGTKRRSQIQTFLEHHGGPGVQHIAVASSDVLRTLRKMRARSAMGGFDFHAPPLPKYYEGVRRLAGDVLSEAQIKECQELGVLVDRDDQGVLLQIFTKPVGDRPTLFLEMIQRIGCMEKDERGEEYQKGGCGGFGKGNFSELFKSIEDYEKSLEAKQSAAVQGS
UniProt O48604, whole entry R146V/R147D/R148G/A164G/L250M: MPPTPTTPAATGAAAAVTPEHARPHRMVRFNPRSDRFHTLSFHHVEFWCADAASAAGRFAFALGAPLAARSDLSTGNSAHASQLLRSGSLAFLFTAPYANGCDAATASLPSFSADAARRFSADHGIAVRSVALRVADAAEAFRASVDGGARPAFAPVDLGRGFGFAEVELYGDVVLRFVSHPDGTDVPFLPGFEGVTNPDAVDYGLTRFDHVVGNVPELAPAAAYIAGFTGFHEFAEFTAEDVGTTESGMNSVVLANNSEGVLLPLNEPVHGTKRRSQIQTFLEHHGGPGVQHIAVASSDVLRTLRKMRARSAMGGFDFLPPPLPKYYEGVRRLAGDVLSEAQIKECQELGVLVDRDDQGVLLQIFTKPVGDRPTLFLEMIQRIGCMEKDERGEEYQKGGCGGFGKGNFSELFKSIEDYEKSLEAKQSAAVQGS
UniProt O48604, whole entry R146V/R147D/R148G/A164G/F377L: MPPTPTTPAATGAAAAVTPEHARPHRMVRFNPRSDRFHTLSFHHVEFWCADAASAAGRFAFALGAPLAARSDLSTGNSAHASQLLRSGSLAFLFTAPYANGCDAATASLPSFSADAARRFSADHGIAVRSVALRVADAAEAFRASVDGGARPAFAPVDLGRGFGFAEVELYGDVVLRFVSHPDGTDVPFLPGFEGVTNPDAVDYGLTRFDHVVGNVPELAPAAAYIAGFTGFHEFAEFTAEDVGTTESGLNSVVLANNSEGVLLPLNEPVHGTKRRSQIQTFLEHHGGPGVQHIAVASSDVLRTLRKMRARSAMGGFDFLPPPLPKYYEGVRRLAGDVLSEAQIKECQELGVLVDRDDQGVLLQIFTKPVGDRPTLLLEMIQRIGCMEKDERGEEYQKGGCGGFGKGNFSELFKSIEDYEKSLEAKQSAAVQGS
UniProt O48604, whole entry R146V/R147D/R148G/A164G/L320Q/P321R/L353M: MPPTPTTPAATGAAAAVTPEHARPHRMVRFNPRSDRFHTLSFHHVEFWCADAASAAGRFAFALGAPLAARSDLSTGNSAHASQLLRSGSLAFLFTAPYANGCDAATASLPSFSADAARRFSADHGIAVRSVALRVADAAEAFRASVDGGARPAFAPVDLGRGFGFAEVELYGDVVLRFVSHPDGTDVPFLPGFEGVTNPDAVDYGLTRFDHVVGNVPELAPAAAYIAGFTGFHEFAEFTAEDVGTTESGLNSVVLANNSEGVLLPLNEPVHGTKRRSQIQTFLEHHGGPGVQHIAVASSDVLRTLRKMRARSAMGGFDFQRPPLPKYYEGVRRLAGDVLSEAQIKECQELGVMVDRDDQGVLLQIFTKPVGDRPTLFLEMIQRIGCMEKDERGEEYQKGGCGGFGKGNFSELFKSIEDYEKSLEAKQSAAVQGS
UniProt O48604, whole entry R146V/R147D/R148G/A164G/F404L: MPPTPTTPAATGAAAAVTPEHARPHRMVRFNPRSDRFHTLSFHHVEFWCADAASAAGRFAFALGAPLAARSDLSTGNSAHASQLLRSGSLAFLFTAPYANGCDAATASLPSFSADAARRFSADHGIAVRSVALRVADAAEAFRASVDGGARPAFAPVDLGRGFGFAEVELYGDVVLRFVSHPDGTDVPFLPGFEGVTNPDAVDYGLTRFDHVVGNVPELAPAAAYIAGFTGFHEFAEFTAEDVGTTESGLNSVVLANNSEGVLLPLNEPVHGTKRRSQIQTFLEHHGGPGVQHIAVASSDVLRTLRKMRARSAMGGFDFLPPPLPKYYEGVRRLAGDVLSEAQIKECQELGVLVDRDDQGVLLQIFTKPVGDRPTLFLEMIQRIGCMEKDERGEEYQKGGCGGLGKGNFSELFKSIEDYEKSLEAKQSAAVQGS
UniProt P93836, whole entry F381I: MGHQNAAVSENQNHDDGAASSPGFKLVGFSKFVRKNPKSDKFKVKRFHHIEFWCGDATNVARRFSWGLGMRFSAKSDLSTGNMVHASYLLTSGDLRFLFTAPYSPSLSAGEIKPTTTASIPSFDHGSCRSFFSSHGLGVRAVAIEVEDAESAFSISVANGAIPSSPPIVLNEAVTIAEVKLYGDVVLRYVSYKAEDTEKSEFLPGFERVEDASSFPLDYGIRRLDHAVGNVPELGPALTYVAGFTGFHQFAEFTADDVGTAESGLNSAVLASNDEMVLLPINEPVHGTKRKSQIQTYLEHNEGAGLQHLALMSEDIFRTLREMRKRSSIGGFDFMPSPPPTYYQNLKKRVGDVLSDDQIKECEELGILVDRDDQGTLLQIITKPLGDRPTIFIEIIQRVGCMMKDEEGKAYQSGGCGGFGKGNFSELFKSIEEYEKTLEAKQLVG
UniProt P93836, whole entry M335H/P336G/E363Q: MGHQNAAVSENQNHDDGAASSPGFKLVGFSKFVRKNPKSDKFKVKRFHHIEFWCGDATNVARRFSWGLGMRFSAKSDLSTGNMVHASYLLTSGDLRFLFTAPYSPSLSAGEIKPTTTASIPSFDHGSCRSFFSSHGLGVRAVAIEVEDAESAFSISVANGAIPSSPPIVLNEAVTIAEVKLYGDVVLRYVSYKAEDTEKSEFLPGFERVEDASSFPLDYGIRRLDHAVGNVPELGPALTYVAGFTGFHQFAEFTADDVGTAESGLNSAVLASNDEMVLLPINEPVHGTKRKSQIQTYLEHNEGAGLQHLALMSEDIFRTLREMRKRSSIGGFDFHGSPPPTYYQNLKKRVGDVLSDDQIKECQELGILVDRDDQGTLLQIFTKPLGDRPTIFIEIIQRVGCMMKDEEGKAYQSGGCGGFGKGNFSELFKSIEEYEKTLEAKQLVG
UniProt P93836, whole entry F381L: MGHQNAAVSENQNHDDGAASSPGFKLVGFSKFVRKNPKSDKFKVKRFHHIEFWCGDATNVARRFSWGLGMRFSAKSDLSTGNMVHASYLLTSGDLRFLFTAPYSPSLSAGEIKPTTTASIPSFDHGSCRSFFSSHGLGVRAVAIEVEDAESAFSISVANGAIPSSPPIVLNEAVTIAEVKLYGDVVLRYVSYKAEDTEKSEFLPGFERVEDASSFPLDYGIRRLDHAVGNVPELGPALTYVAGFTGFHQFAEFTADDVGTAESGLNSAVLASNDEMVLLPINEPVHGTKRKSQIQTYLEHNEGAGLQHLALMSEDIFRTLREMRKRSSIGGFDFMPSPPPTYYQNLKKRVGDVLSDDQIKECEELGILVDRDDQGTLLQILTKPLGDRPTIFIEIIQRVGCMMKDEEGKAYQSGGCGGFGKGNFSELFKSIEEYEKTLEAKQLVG
UniProt P93836, whole entry M335H/P336G: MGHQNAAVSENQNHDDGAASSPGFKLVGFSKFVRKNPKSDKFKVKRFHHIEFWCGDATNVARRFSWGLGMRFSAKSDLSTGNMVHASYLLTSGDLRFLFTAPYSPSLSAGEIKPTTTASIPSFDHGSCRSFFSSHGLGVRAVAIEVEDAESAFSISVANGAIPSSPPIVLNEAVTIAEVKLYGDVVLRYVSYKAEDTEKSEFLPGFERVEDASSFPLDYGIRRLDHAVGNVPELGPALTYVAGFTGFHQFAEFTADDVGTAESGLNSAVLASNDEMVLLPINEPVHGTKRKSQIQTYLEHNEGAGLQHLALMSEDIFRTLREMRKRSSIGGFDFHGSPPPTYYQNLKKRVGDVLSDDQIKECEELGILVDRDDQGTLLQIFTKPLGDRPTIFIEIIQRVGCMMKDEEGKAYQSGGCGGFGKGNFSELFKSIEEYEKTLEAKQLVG
UniProt P93836, whole entry M335H/P336A: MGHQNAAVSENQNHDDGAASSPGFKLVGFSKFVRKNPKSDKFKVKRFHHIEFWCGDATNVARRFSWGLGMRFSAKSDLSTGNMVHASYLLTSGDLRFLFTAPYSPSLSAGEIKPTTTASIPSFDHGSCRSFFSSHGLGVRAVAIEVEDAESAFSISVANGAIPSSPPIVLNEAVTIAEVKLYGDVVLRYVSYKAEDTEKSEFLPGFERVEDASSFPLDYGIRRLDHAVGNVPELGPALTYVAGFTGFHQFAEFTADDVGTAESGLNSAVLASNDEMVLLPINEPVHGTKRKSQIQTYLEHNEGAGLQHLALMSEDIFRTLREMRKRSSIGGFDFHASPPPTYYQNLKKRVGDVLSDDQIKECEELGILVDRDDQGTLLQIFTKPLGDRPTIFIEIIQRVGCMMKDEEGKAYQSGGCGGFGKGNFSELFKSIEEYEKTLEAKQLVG

According to patent US11230717B2, “Plants having increased tolerance to herbicides” (BASF SE, priority 2013, dated 2022):

What was measured:
Test in all cases: HPPD activity assay, in vitro characterization of HPPD mutants
Type in all cases: biochemical
[1] = target: T1, Hordeum HPPD variant L320H (Hordeum vulgare, UniProt O48604, A164G/L320H/R146V/R147D/R148G); settings: normalized to wild-type
T1 construct: His (N); made in house; host or cells: E. coli BL21 (DE3)
Method: (§1) HPPD produces homogentisic acid and CO2 from 4-hydroxyphenylpyruvate (4-HPP) and O2. The activity assay for HPPD is based on the analysis of homogentisic acid by reversed phase HPLC.
(§2) The assay mixture can contain 150 mM potassium phosphate buffer pH 7.0, 50 mM L-ascorbic acid, 100 μM Catalase (Sigma-Aldrich), 1 μM FeSO4 and 0.2 units of purified HPPD enzyme in a total volume of 505 μl. 1 unit is defined as the amount of enzyme that is required to produce 1 nmol of HGA per minute at 20° C.
(§3) After a preincubation of 30 min the reaction is started by adding 4-HPP to a final concentration of 0.05 mM. The reaction is allowed to proceed for 45 min at room temperature. The reaction is stopped by the addition of 50 μl of 4.5 M phosphoric acid. The sample is filtered using a […] pore size PVDF filtration device.
(§4) 5 μl of the cleared sample is analyzed on an UPLC HSS T3 column (particle size 1.8 μm, dimensions 2,1×50 mm; Waters) by isocratic elution using 90% 20 mM NaH2PO4 pH 2.2, 10% methanol (v/v).
(§5) HGA is detected electrochemically at 750 mV (mode: DC; polarity: positive) and quantified by integrating peak areas (Empower software; Waters).
(§6) Inhibitors are dissolved in DMSO (dimethylsulfoxide) to a concentration of 0.5 mM. From this stock solution serial five-fold dilutions are prepared in DMSO, which are used in the assay. The respective inhibitor solution accounts for 1% of the assay volume. […] Activities are normalized by setting the uninhibited enzyme activity to 100%. IC50 values are calculated using non-linear regression.
(§7) Purified, mutant HPPD enzymes are obtained by the methods described above. Dose response and kinetic measurements are carried out using the described HPPD activity assay. Apparent michaelis constants (Km) and maximal reaction velocities (Vmax) are calculated by non-linear regression with the software GraphPad Prism 5 (GraphPad Software, La Jolla, USA) using a substrate inhibition model. […] Weighted means (by standard error) of Km and IC50 values are calculated from at least three independent experiments.
(§8) Field performance of the optimized HPPD enzyme, which is used as a herbicide tolerance trait may depend not only on its lack of sensitivity towards HPPD inhibiting herbicides but also on its activity. To assess the potential performance of a herbicide tolerance trait a tolerance index (TI) is calculated using the following formula: […]

[2] = target: T2, Hordeum HPPD variant S252T (Hordeum vulgare, UniProt O48604, A164G/R146V/R147D/R148G/S252T); settings: normalized to wild-type
T2 construct: His (N); made in house; host or cells: E. coli BL21 (DE3)
Method: as §1, §2, §3, §4, §5, §6, §7, §8

[3] = target: T3, Arabidopsis HPPD variant F381I (Arabidopsis thaliana, UniProt P93836, F381I); settings: normalized to wildtype
T3 construct: His6 (N); made in house; host or cells: E. coli BL21 (DE3)
Method: as §1, §2, §3, §4, §5, §6, §7, §8

[4] = target: T4, Hordeum HPPD variant R309K (Hordeum vulgare, UniProt O48604, A164G/R146V/R147D/R148G/R309K); settings: normalized to wild-type
T4 construct: His (N); made in house; host or cells: E. coli BL21 (DE3)
Method: as §1, §2, §3, §4, §5, §6, §7, §8

[5] = target: T5, Hordeum HPPD variant L353M, P321R, L320N (Hordeum vulgare, UniProt O48604, L320N/L353M/P321R); settings: normalized to wild-type
T5 construct: His (N); made in house; host or cells: E. coli BL21 (DE3)
Method: as §1, §2, §3, §4, §5, §6, §7, §8

[6] = target: T6, Hordeum HPPD variant L320N (Hordeum vulgare, UniProt O48604, A164G/L320N/R146V/R147D/R148G); settings: normalized to wild-type
T6 construct: His (N); made in house; host or cells: E. coli BL21 (DE3)
Method: as §1, §2, §3, §4, §5, §6, §7, §8

[7] = target: T7, Hordeum HPPD variant L320H, P321A (Hordeum vulgare, UniProt O48604, L320H/P321A); settings: normalized to wild-type
T7 construct: His (N); made in house; host or cells: E. coli BL21 (DE3)
Method: as §1, §2, §3, §4, §5, §6, §7, §8

[8] = target: T8, Hordeum HPPD variant L250M (Hordeum vulgare, UniProt O48604, A164G/L250M/R146V/R147D/R148G); settings: normalized to wild-type
T8 construct: His (N); made in house; host or cells: E. coli BL21 (DE3)
Method: as §1, §2, §3, §4, §5, §6, §7, §8

[9] = target: T9, Arabidopsis HPPD variant M335H, P336G, E363Q (Arabidopsis thaliana, UniProt P93836, E363Q/M335H/P336G); settings: normalized to wildtype
T9 construct: His6 (N); made in house; host or cells: E. coli BL21 (DE3)
Method: as §1, §2, §3, §4, §5, §6, §7, §8

[10] = target: T10, Arabidopsis HPPD variant F381L (Arabidopsis thaliana, UniProt P93836, F381L); settings: normalized to wildtype
T10 construct: His6 (N); made in house; host or cells: E. coli BL21 (DE3)
Method: as §1, §2, §3, §4, §5, §6, §7, §8

[11] = target: T11, Hordeum HPPD variant F377L (Hordeum vulgare, UniProt O48604, A164G/F377L/R146V/R147D/R148G); settings: normalized to wild-type
T11 construct: His (N); made in house; host or cells: E. coli BL21 (DE3)
Method: as §1, §2, §3, §4, §5, §6, §7, §8

[12] = target: T12, Arabidopsis HPPD variant M335H, P336G (Arabidopsis thaliana, UniProt P93836, M335H/P336G); settings: normalized to wildtype
T12 construct: His6 (N); made in house; host or cells: E. coli BL21 (DE3)
Method: as §1, §2, §3, §4, §5, §6, §7, §8

[13] = target: T13, Hordeum HPPD variant L353M, P321R, L320Q (Hordeum vulgare, UniProt O48604, L320Q/L353M/P321R); settings: normalized to wild-type
T13 construct: His (N); made in house; host or cells: E. coli BL21 (DE3)
Method: as §1, §2, §3, §4, §5, §6, §7, §8

[14] = target: T14, Hordeum HPPD variant F404L (Hordeum vulgare, UniProt O48604, A164G/F404L/R146V/R147D/R148G); settings: normalized to wild-type
T14 construct: His (N); made in house; host or cells: E. coli BL21 (DE3)
Method: as §1, §2, §3, §4, §5, §6, §7, §8

[15] = target: T15, Arabidopsis HPPD variant M335H, P336A (Arabidopsis thaliana, UniProt P93836, M335H/P336A); settings: normalized to wildtype
T15 construct: His6 (N); made in house; host or cells: E. coli BL21 (DE3)
Method: as §1, §2, §3, §4, §5, §6, §7, §8

CSc1c(Cl)cc(F)c(C(=O)Nc2nnnn2C)c1Cl [Inhibitor 2, 2,4-dichloro-6-fluoro-3-methylsulfanyl-N-(1-methyltetrazol-5-yl)benzamide]
Normalized tolerance index (TI) [1]: 4 and 4.5
Normalized tolerance index (TI) [2]: 7.3
Normalized tolerance index (TI) [3]: 0.6
Normalized tolerance index (TI) [4]: 2.1
Normalized tolerance index (TI) [5]: 1.2
Normalized tolerance index (TI) [6]: 0.6
Normalized tolerance index (TI) [7]: 3.6
Normalized tolerance index (TI) [8]: 0.8
Normalized tolerance index (TI) [9]: 1.1
Normalized tolerance index (TI) [10]: 0.8
Normalized tolerance index (TI) [11]: 2.1
Normalized tolerance index (TI) [12]: 0.9
Normalized tolerance index (TI) [13]: 3
Normalized tolerance index (TI) [14]: 0.9
Normalized tolerance index (TI) [15]: 0.8

“And” between values parts separate entries of the source, which are not always exact repeats. Equal values may be shown once.
